Measurements from patent publication US20240139156A1, “COMBINATION TREATING PROSTATE CANCER, PHARMACEUTICAL COMPOSITION AND TREATMENT METHOD” (KANGPU BIOPHARMACEUTICALS, LTD., priority 2017, published 2024).

System: Vcap cells (androgen receptor (+) prostate cancer cells)
Test: CTG cell proliferation assay (CellTiter-Glo), compounds alone or in combination
Conditions: for effect of tested compound in combination with the other therapeutic agents (prednisone, Galeterone, Abiraterone acetate, ODM-201): Vcap cell survival, without B001, summary in words
[1] = 1 μM tested compound in combination with 1 μM Abiraterone acetate
[2] = 1 μM tested compound in combination with 1 μM B001
[3] = 1 μM tested compound in combination with 1 μM B001 and 1 μM Abiraterone acetate
[4] = 1 μM tested compound in combination with 1 μM B001 and 1 μM Galeterone
[5] = 1 μM tested compound in combination with 1 μM B001 and 1 μM prednisone
[6] = 1 μM tested compound in combination with 1 μM B001 and 1 μM prednisone and 1 μM Abiraterone acetate
[7] = 1 μM tested compound in combination with 1 μM B001 and 1 μM prednisone and 1 μM ODM-201
[8] = 1 μM tested compound in combination with 1 μM Galeterone
[9] = 1 μM tested compound in combination with 1 μM ODM-201
[10] = 1 μM tested compound in combination with 1 μM prednisone
[11] = 10 μM tested compound in combination with 1 μM Abiraterone acetate
[12] = 10 μM tested compound in combination with 1 μM B001
[13] = 10 μM tested compound in combination with 1 μM B001 and 1 μM Abiraterone acetate
[14] = 10 μM tested compound in combination with 1 μM B001 and 1 μM Galeterone
[15] = 10 μM tested compound in combination with 1 μM B001 and 1 μM ODM-201
[16] = 10 μM tested compound in combination with 1 μM B001 and 1 μM prednisone
[17] = 10 μM tested compound in combination with 1 μM B001 and 1 μM prednisone and 1 μM Abiraterone acetate
[18] = 10 μM tested compound in combination with 1 μM B001 and 1 μM prednisone and 1 μM Galeterone
[19] = 10 μM tested compound in combination with 1 μM B001 and 1 μM prednisone and 1 μM ODM-201
[20] = 10 μM tested compound in combination with 1 μM Galeterone
[21] = 10 μM tested compound in combination with 1 μM ODM-201
[22] = 10 μM tested compound in combination with 1 μM prednisone
[23] = Homo sapiens, VCaP, 120 h, read-out: Survival rate of Vcap cells

`[2H]C([2H])([2H])NC(=O)c1ccc(N2C(=S)N(c3ccc(C#N)c(C(F)(F)F)c3)C(=O)C2(C)C)cc1F` [AR1-1] was tested, and the “Survival rate of Vcap cells” value [1] was 71.1%, the “Survival rate of Vcap cells” value [2] was 51.992% and the “Survival rate of Vcap cells” value [3] was 48.5%. For the same compound, the “Survival rate of Vcap cells” value [4] was 49.4%, the “Survival rate of Vcap cells” value [5] was 47.6% and the “Survival rate of Vcap cells” value [6] was 49.5%. For the same compound, the “Survival rate of Vcap cells” value [7] was 46.7%, the “Survival rate of Vcap cells” value [8] was 73.8% and the “Survival rate of Vcap cells” value [9] was 68.4%. For the same compound, the “Survival rate of Vcap cells” value [10] was 79.9%, the “Survival rate of Vcap cells” value [11] was 60.6% and the “Survival rate of Vcap cells” value [12] was 43.631%. For the same compound, the “Survival rate of Vcap cells” value [13] was 44.1%, the “Survival rate of Vcap cells” value [14] was 48.6% and the “Survival rate of Vcap cells” value [15] was 46.9%. The “Survival rate of Vcap cells” value [16] was 40.0%, the “Survival rate of Vcap cells” value [17] was 41.2% and the “Survival rate of Vcap cells” value [18] was 41.9%. For the same compound, the “Survival rate of Vcap cells” value [19] was 44.2%, the “Survival rate of Vcap cells” value [20] was 66.6% and the “Survival rate of Vcap cells” value [21] was 64.2%. The “Survival rate of Vcap cells” value [22] was 62.2%, the viability at 10 µM [23] was 61.1% and the “effect of tested compound in combination with the other therapeutic agents (prednisone, Galeterone, Abiraterone acetate, ODM-201)” value was “did not improve significantly”.
In the case of `[2H]C([2H])([2H])NC(=O)c1ccc(N2C(=S)N(c3cnc(C#N)c(C(F)(F)F)c3)C(=O)C23CCC3)cc1F` [AR1-2], the “Survival rate of Vcap cells” value [1] is reported as 71.2%, the “Survival rate of Vcap cells” value [2] is reported as 55.248% and the “Survival rate of Vcap cells” value [3] is reported as 47.3%. For the same compound, the “Survival rate of Vcap cells” value [4] was 49.9%, the “Survival rate of Vcap cells” value (1 μM tested compound in combination with 1 μM B001 and 1 μM ODM-201) was 46.8% and the “Survival rate of Vcap cells” value [5] was 55.1%. For the same compound, the “Survival rate of Vcap cells” value [6] was 59.5%, the “Survival rate of Vcap cells” value (1 μM tested compound in combination with 1 μM B001 and 1 μM prednisone and 1 μM Galeterone) was 58.5% and the “Survival rate of Vcap cells” value [7] was 62.6%. For the same compound, the “Survival rate of Vcap cells” value [8] was 76.9%, the “Survival rate of Vcap cells” value [9] was 73.3% and the “Survival rate of Vcap cells” value [10] was 78.3%. The “Survival rate of Vcap cells” value [11] was 60.2%, the “Survival rate of Vcap cells” value [12] was 42.006% and the “Survival rate of Vcap cells” value [13] was 35.5%. For the same compound, the “Survival rate of Vcap cells” value [14] was 38.0%, the “Survival rate of Vcap cells” value [15] was 41.3% and the “Survival rate of Vcap cells” value [16] was 43.1%. The “Survival rate of Vcap cells” value [17] was 44.5%, the “Survival rate of Vcap cells” value [18] was 44.4% and the “Survival rate of Vcap cells” value [19] was 50.8%. For the same compound, the “Survival rate of Vcap cells” value [20] was 64.1%, the “Survival rate of Vcap cells” value [21] was 63.9% and the “Survival rate of Vcap cells” value [22] was 59.3%. The viability at 1 µM [23] was 75.1%, the viability at 10 µM [23] was 60.9% and the “effect of tested compound in combination with the other therapeutic agents (prednisone, Galeterone, Abiraterone acetate, ODM-201)” value was “did not improve significantly”.
